Experiments:
[1] = system: U-118 MG glioma cell line; assay: Antibody staining and flow cytometry (intracellular gp100; surface MHC Class I/II); assay type: cell-based, human; settings: 3 days, IFN-beta 5000 Units/ml, 17-AEP 1.0, PU-H71 0.3, CCT018159 10.0 μg/ml
Protocol: Cells were fixed with 1% formaldehyde, permeabilized with 0.1% saponin, stained with monoclonal antibodies to melanocyte antigens. Antibodies were obtained with specificity for: MART-1 from Vector Labs (Burlingame, Calif.); gp100 HMB45 from DakoCytomation (Carpinteria, Calif.) and then visualized with goat anti-mouse FITC-conjugated secondary antibody from Invitrogen (Fredrick, Md.). The level of EGFP was determined by flow cytometry of unfixed cells that were washed and resuspended in 1×PBS.
Cells were plated at a density of 1×10^5 in 1 ml of medium in a 24-well plate and cultured for varying times as indicated in results. Typically, 3 days of culture in the presence of Hsp90 inhibitors was optimal for the functional studies performed. After incubation, cells were collected by trypsinization and then evaluated by flow cytometry.
Intracellular staining and flow cytometric analyses of cytoplasmic Melan-A/MART-1, and gp100 expression were performed as described previously. […] The level of EGFP was determined by flow cytometry of unfixed cells washed and resuspended in 1×PBS. […]
(§1) For surface staining of HLA Class I and II antigens, cells were harvested using CellStripper™ from Mediatech (Manassas, Va.). […] Stained cells were washed twice with cold PBS and then stained with a goat anti-mouse FITC secondary antibody to allow for quantitative analysis by flow cytometry. […]

[2] = system: HeLa cervical carcinoma cells; assay: Surface antibody staining and flow cytometry (MHC Class I/II); assay type: cell-based, human; settings: single agent for 3 days, no IFN-β pre-treatment, IFN-β 5000 Units/ml, PU-H71 0.3
Protocol: Intracellular staining and flow cytometric analyses of cytoplasmic Melan-A/MART-1, and gp100 expression were performed as described previously. Cells were fixed with 1% formaldehyde, permeabilized with 0.1% saponin, stained with monoclonal antibodies to melanocyte antigens. Antibodies were obtained with specificity for: Melan-A/MART-1 from Vector Labs (Burlingame, Calif.); gp100/HMB45 from DakoCytomation (Carpinteria, Calif.) and then visualized with goat anti-mouse FITC-conjugated secondary antibody from Invitrogen (Frederick, Md.). The level of EGFP was determined by flow cytometry of unfixed cells washed and resuspended in 1×PBS. Surface staining of MHC Class I was carried out using the antibody W6/32 on cells harvested with Cell Stripper from MediaTech Inc. (Manassas, Va.) and carried out on ice.
Cell were seeded at 1×10^6 cells in a T25 flask with 10 ml of media for the 4 day IFN-beta pre-treatments. Cells were then harvested and plated in 24 well plate at 1×10^5 cells per well in 1 ml of media for 3 day treatments.
as §1, with “Va.). All staining steps were performed on ice.” for “Va.).”

SMILES: CC(C)NCCCn1c(Sc2cc3c(cc2I)OCO3)nc2c(N)ncnc21 [PU-H71]
- Class I, geometric mean of surface staining (W6/32) [1]: 132
- Class I MHC, geometric mean of surface staining (W6/32) [2]: 165
